{"source": "patent US5668144A", "about": "“1-azabicyclopheptane derivatives” (American Home Products Corporation, priority 1996, dated 1997)", "origin": "cited, not measured here", "tested_on": "m1 receptors", "conditions": "cited from earlier work"}
{"smiles": "C[N+](C)(C)CCOC(N)=O", "note": "[carbachol]", "values": [{"measurement": "activation of m1 receptors (in words)", "value": "able to fully activate m1 receptors"}]}
